One assay addresses h5-HT2C receptor (Homo sapiens, UniProt P28335). As to conditions: read-out: Inhibition of radioligand binding Ki ± sem, h5-HT2C [125I]DOI.
For assay [1], the target named is T1, h5-HT2A receptor (Homo sapiens, UniProt P28223). In words: [125I]DOI binding, HEK-h5-HT2A.
Assay [2] addresses T1, h5-HT2A receptor. In words: cell-based.

Protein sequences, listed by entry. Tags and fused reporters are not part of them. Residues count along the entry.
UniProt P28335, 33-458: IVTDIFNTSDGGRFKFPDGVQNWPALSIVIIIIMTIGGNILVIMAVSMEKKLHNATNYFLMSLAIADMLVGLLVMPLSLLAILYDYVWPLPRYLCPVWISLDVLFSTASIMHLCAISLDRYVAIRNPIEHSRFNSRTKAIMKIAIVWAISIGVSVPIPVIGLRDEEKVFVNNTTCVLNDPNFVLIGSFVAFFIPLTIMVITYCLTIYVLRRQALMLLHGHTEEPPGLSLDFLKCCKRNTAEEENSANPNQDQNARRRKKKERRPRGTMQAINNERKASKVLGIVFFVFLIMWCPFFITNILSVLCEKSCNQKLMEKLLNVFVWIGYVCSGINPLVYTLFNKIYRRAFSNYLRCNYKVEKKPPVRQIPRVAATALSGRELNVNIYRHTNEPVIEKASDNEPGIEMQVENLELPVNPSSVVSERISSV
UniProt P28223, whole entry: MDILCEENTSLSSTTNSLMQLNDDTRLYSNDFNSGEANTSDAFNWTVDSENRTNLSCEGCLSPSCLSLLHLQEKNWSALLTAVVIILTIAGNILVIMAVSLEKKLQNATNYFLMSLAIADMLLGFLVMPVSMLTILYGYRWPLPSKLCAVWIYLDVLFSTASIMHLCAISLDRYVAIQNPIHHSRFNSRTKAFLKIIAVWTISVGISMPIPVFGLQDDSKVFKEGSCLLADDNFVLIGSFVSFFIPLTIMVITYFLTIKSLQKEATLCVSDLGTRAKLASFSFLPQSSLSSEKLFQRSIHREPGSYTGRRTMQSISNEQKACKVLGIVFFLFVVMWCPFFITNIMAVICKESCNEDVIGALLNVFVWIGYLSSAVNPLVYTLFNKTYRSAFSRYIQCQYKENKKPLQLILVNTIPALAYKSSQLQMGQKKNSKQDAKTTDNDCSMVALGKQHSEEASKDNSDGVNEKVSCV

A word on the Ki: it is a measure of affinity in units of concentration, obtained from inhibition or displacement. With `CNC(C)Cc1ccc2c(c1)OCO2` (stereo not drawn) [MDMA, 3,4-methylenedioxymethylamphetamine, reference compound], on h5-HT2C receptor, the Ki was found to be 1.36 µM. For orientation: IC50 means the midpoint of a concentration-inhibition curve. Lower therefore signals inhibition by little substance. With `CNC(C)C(=O)c1ccc(C)cc1` (stereo not drawn) [Mephedrone, 4-methyl-N-methylcathinone], affinity at h5-HT2A receptor [1] was put at a Ki of 9 ± 1.5 µM. This molecule yielded an IC50 against h5-HT2A receptor [2] of 14.8 ± 1.8 µM.

Source of the values: paper PMC3692398 (Biochemical pharmacology, 2013).
